esBAF inh: inhibitors of esBAF chromatin remodeling in mouse ES cells; Bmi1-luciferase knock-in reporter, 24 h; 100% = twice the neutral-well signal; reporter increase, % at 12.5 µM; 2% of 350,000 active; AID 602393; in the data active means activation above about 40%; inconclusive means no clear call, values can overlap the other calls;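 further: 0% = median of the plate's neutral control wells and 100% = double that signal; a rise in the Bmi1 reporter signal indicates esBAF inhibition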
C2C12 statin: protects C2C12 myotubes from simvastatin toxicity. ATP luminescence, 48 h; scaled: DMSO 0, geranylgeraniol control 100. rescue of ATP level, % at 7.49 µM. 0.78% of 330,000 active. AID 602340;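 active means mean ATP rescue above about 67%, or every replicate alone reaching that limit, limit read from the data, passing the limit was not always enough; inconclusive means no clear call, values can overlap the other calls; inactive means mean under the limit and some replicate under it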;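 further: myotubes were challenged with 10 µM simvastatin during compound exposure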
PGC1a acetyl inh: PGC1a acetylation modulation, inhibitor mode | U2OS PGC1a acetylation, AlphaScreen anti-acetyl-lysine; with virally co-expressed GCN5 acetyltransferase | inhibition, % at 15.6 µM | 0.17% of 350,000 active | AID 651687;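 active means every replicate shows inhibition of at least 40%; inconclusive means mean inhibition at least 40% but some replicate below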;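 further: 0% = neutral control wells and 100% = positive control wells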
UUG fidelity: modulators of start codon recognition fidelity in yeast; AID 602363; activity score, % at 18.7 µM; S. cerevisiae UUG-firefly luciferase reporter, luminescence/redox ratio; actives 0.13% (n = 350,000);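 active = replicate mean at a twofold rise or more, about +100% in these data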;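 note: firefly luciferase made from a UUG start codon reports start codon fidelity; reporter light over untreated wells divided by growth signal over untreated wells; some hits fall short of that in this replicate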
E-sel inducer: E-selectin induction on HUVECs | activation, % at 7.58 µM | 0.37% of 260,000 active | HUVEC E-selectin immunofluorescence imaging; normalized: neutral wells 0, TNF-alpha wells 100 | P16581 | AID 686992;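 active means mean E-selectin-positive cell signal at least 10% of the positive control, reached in at least 60% of replicates, without over 20% cell loss; inconclusive means no rule given, readout overlaps actives, possibly toxicity-flagged; inactive means the rest, including those meeting only one limit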
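Read-out basis: % PE-positive cells; Test system: HUVEC primary endothelial cells; Technique: immunofluorescence imaging; Dosing: single-point compound dose.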
PglD inh: blocks C. jejuni PglD acetyltransferase activity. 0.098% of 360,000 active. purified PglD enzyme, DTNB colorimetric CoA detection. inhibition, % at 12.5 µM. AID 602405; in the data active means inhibition above about 16%, passing the limit was not always enough; inconclusive means no clear call, values can overlap the other calls
Numbers without * were called inactive; ? = inconclusive; nt = no result. Only some compounds are listed: those with a hit (about 2.8% of all), similar ones and a draw of the others.

SMILES	esBAF inh	C2C12 statin	PGC1a acetyl inh	UUG fidelity	E-sel inducer	PglD inh
CCOc1ccc(N(CC(=O)Nc2ccccc2)S(C)(=O)=O)cc1	nt	nt	0.4	-16.4	nt	4.0
CC(C)c1cn(CC[C@@H]2CC[C@@H](NC(=O)C3CCC3)[C@H](CO)O2)nn1	-5.8	-0.6	-7.4	-5.6	0.6	14.5
O=C(NCCn1cc(CN2C(=O)COC[C@H]2c2ccccc2)nn1)Nc1ccccc1	nt	nt	1.4	nt	nt	nt
COc1ccc(OCCCC(=O)Nc2cc([N+](=O)[O-])ccc2C)cc1	-7.2	73.4*	-10.7	-8.2	nt	4.3
O=C(c1ccccc1)c1ccc(OCC(O)CN2CCCCC2)cc1 (stereo not drawn)	-2.9	nt	-4.7	-3.0	nt	-0.7
O=C(c1ccccc1)c1ccc(OCC(O)CN2CCN(S(=O)(=O)N3CCCCC3)CC2)cc1 (stereo not drawn)	3.2	77.3*	0.6	9.1	nt	0.7
CNC[C@@H]1Oc2ncc(Br)cc2C(=O)N([C@@H](C)CO)C[C@H]1C	0.5	12.8	-0.4	0.4	0.5	0.4
COCC(=O)N(C)C1(c2nnnn2CCOC(=O)Nc2cccc3ccccc23)CCCC1	1.0	97.6*	0.0	-17.4	nt	-2.7
COc1ccc(NC(=O)C2(N(C(=O)Cn3nnnc3N)c3ccc(OC)cc3)CCCCC2)cc1	-6.2	6.3	8.7	2.9	nt	1.4
CC(=O)Nc1ccc(NC(=O)CSc2nnc(C3CC3)n2C)cc1	-4.5	127.2*	-6.8	-4.4	nt	-0.2
CNS(=O)(=O)c1ccc(NCC2COc3ccccc3O2)c([N+](=O)[O-])c1 (stereo not drawn)	43.9*	-5.6	6.5	-9.9	nt	-5.9
Nc1ccc2nc(NC(=O)C3CCCCC3)sc2c1	51.6*	-23.7	5.5	-19.5	0.1	-1.7
O=C(Nc1nc2ccc(C(=O)N3CCCCC3)cc2s1)C1CCCCC1	nt	nt	1.3	nt	7.0	nt
O=C(Nc1nc2ccc(F)cc2s1)C1CCCO1 (stereo not drawn)	98.6*	-6.6	10.8	-23.3	nt	4.8
O=C(Nc1nc2ccccc2s1)C1CCCO1 (stereo not drawn)	8.8	6.3	-12.1	-14.4	nt	-1.1

In the list so far, these have an aryl methoxy group:
SMILES	esBAF inh	C2C12 statin	PGC1a acetyl inh	UUG fidelity	E-sel inducer	PglD inh
COc1ccc(OCCCC(=O)Nc2cc([N+](=O)[O-])ccc2C)cc1	-7.2	73.4*	-10.7	-8.2	nt	4.3
COc1ccc(NC(=O)C2(N(C(=O)Cn3nnnc3N)c3ccc(OC)cc3)CCCCC2)cc1	-6.2	6.3	8.7	2.9	nt	1.4

Other results.
SMILES	esBAF inh	C2C12 statin	PGC1a acetyl inh	UUG fidelity	E-sel inducer	PglD inh
Cc1nn(C)cc1NC(=O)C[C@@H]1CC[C@@H]2[C@@H](COc3ccc(NC(=O)C(C)C)cc3C(=O)N2C)O1	-3.0	-0.7	-5.0	-10.9	-0.2	1.3
Cc1nn(-c2ccccc2)c2sc(C(=O)N3CCCCC3)cc12	44.7*	?	1.9	0.6	nt	1.2
CC1CCCN(C(=O)c2cc3c(=O)n4ccccc4nc3s2)C1 (stereo not drawn)	62.5*	8.2	2.1	-6.5	nt	-1.9
CCN(CC)C(=O)c1cc2c(=O)n3ccccc3nc2s1	42.1*	-10.1	2.4	-14.7	0.1	6.0
Cc1cccn2c(=O)c3cc(C(=O)N4CCCCC4)sc3nc12	46.9*	1.5	nt	-20.6	nt	3.3
COc1ccc(CNc2oc(-c3cccc4ccccc34)nc2C#N)cc1	-9.4	-12.2	nt	-1.5	nt	-5.9
CCOP(=O)(OCC)c1nc(-c2cccc3ccccc23)oc1NCCc1ccc(OC)cc1	-8.2	92.0*	4.1	13.1	-0.4	1.8
Cc1cccc(-c2nc3cc([N+](=O)[O-])ccc3o2)c1	57.1*	-0.1	-1.5	-9.3	0.0	nt
Nc1ccc2oc(C3CCCCC3)nc2c1	nt	nt	nt	nt	4.5	nt
O=[N+]([O-])c1ccc2oc(C3CCCCC3)nc2c1	44.3*	-7.6	-0.5	-1.6	-0.6	4.7
CCOc1cccc(-c2nc3cc(C)ccc3o2)c1	50.4*	-2.4	-0.3	0.1	nt	0.2
O=C(c1ccccn1)N1CC[C@@H]2[C@@H](CO)Nc3ccc(-c4ccccc4)cc3[C@@H]21	10.4	9.2	9.3	8.9	-0.3	-2.3
CCCCNC(=O)N(C)c1nc2ccccc2s1	63.5*	0.6	2.2	4.5	-1.1	-3.2
COC(=O)N(C)c1nc2ccccc2s1	27.1	-8.0	4.7	-21.0	nt	-7.7
CNc1cc(-c2ccc(CC#N)cc2)ncn1	50.4*	5.5	nt	-14.3	-0.1	0.1

One compound at a time, from the list above:
Shown for Cc1cccn2c(=O)c3cc(C(=O)N4CCCCC4)sc3nc12 → esBAF inh = 46.9*; C2C12 statin = 1.5; PGC1a acetyl inh = nt; UUG fidelity = -20.6; E-sel inducer = nt; PglD inh = 3.3
Shown for Cc1nn(C)cc1NC(=O)C[C@@H]1CC[C@@H]2[C@@H](COc3ccc(NC(=O)C(C)C)cc3C(=O)N2C)O1 → esBAF inh = -3.0; C2C12 statin = -0.7; PGC1a acetyl inh = -5.0; UUG fidelity = -10.9; E-sel inducer = -0.2; PglD inh = 1.3

Carrying on.
SMILES	esBAF inh	C2C12 statin	PGC1a acetyl inh	UUG fidelity	E-sel inducer	PglD inh
COc1ccc(C=O)cc1CSc1nnc(COc2cccc3cccnc23)o1	-0.2	138.0*	7.7	-11.2	nt	5.3
Cc1noc(C)c1NC(=O)Nc1cccc2c1O[C@@H](CN(C)Cc1ccccc1)[C@@H](C)CN([C@H](C)CO)C2=O	-0.2	3.0	nt	-2.2	1.1	2.9
CNC[C@@H]1Oc2c(NS(=O)(=O)c3c(C)noc3C)cccc2C(=O)N([C@H](C)CO)C[C@H]1C	nt	nt	9.1	nt	0.3	nt
CCCNC(=O)OCCC12CC3CC(CC(C3)C1)C2	55.6*	-1.0	-7.2	-12.8	nt	-3.0
CCCNC(=O)NCCC12CC3CC(CC(C3)C1)C2	17.0	-14.4	-13.7	nt	nt	nt
Cc1nn2cc(-c3ccc(Cl)cc3)cnc2c1Cl	72.4*	-10.2	-5.9	-4.1	2.4	-0.2
Cc1cccc(C(=O)NC(=S)Nc2ccccc2C(F)(F)F)c1	nt	nt	nt	nt	-0.2	nt
Cc1c(Cl)cccc1NC(=S)NC(=O)c1ccccc1	59.7*	-14.1	nt	9.6	-0.4	-7.1
Cc1ccc(C(=O)NC(=S)Nc2cccc3nsnc23)cc1	62.6*	-18.6	6.4	-14.6	nt	2.6
Cc1ccc(C(=O)NC(=S)Nc2ccccc2C(F)(F)F)cc1C	5.1	93.4*	5.0	-25.2	nt	0.9
Cc1cc(C)c(NC(=S)NC(=O)c2ccccc2)cc1C	nt	nt	nt	-1.6	-0.4	3.2
Cc1ccc2c(NC(=S)NC(=O)c3ccccc3)cccc2n1	-2.4	1.9	nt	-18.6	0.9	1.4
Cc1ccc(C(=O)O)cc1NC(=S)NC(=O)c1ccc(-c2ccccc2)cc1	62.1*	3.4	1.5	12.2	nt	0.1
Cc1ccc(C(=O)NC(=S)Nc2cccc3c(C)cc(C)nc23)cc1	13.1	-5.3	-0.3	-10.3	nt	-2.1
CCCOn1nnnc1-c1ccccc1	-6.6	119.5*	-14.4	nt	nt	nt
O=C(/C=C/c1cccc2ccccc12)NCCC1=CCCCC1	7.0	82.1*	-3.6	-14.2	nt	2.2
COC(=O)C[C@H]1CC[C@H]2[C@@H](COc3ccc(NC(=O)Cc4cccs4)cc3C(=O)N2C)O1	-2.6	-13.9	nt	nt	0.2	-2.0
Cc1cc(OCC(=O)N(C)Cc2ccccc2)ccc1Br	42.6*	15.3	nt	10.3	nt	0.1
O=C(Nc1ccc(F)cc1)c1ccccc1NC(=O)C1CCCCC1C(=O)O (stereo not drawn)	8.8	30.4	nt	-11.0	nt	-4.3
O=C(Nc1ccc(F)cc1)c1ccccc1NC(=O)C1CC=CCC1C(=O)O (stereo not drawn)	6.9	4.1	nt	-7.8	-0.2	0.6
CC(C)c1ccc(NC(=O)c2ccccc2NC(=O)C2CC=CCC2C(=O)O)cc1 (stereo not drawn)	51.3*	-4.1	nt	14.5	-0.2	-3.2
CC(C)c1ccc(NC(=O)c2ccccc2NC(=O)C2CCCCC2C(=O)O)cc1 (stereo not drawn)	64.4*	-4.4	9.9	1.9	0.2	-3.5
COc1ccc(NC(=O)c2ccccc2NC(=O)C2CCCCC2C(=O)O)cc1 (stereo not drawn)	50.6*	-6.7	nt	2.5	0.1	4.5
